Assay outcomes from PubChem.
pCIP destab – p/CIP-EGFP fusion destabilizers, primary screen, fluorescence, F442A cells. Q05BA5. 16 h. decrease of EGFP signal, % at 10 µM. 0.01% of 290,000 active. AID 1984, 2009;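 active = EGFP signal decrease of at least 30% at 10 µM or well 3 SD below plate mean, unless failing retest; inactive = the rest, including hits failing retest or dose response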
PKA-R1A activ – activators of PKA-R1A holoenzyme, primary screen, biochemical, fluorescence polarization, Cy5-IP20, bovine R1A, mouse PKAc. PKA-R1A dissociation; scaled: DMSO 0%, 113 µM cGMP 100%. 0.083% of 340,000 active. activation, % at 11.4 µM;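 active = percent activation above the mean of all tested compounds plus 3 SD, cut at about 19% in these data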;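 also: higher means more PKAc released from R1A so a rise in polarization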
Exocytosis inh – LAMP-1 surface exposure blockers, TALL-104 cells – cell-based, flow cytometry, MLPCN library, primary screen; inhibition, % at 10 µM; 0.66% of 360,000 active; TALL-104 LAMP-1 surface exposure; cells stimulated with thapsigargin and PMA;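 active = inhibition above about 55%, limit read from the data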
UUG fidelity – alters start codon recognition fidelity in yeast | S. cerevisiae UUG-firefly luciferase reporter, luminescence/redox ratio | activity score, % at 18.7 µM | hit rate 0.13% among 350,000 | AID 602363;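 active means replicate mean at a twofold rise or more, about +100% in these data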;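 further: firefly luciferase made from a UUG start codon reports start codon fidelity; reporter light over untreated wells divided by growth signal over untreated wells; some hits fall short of that in this replicate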
ABCB6 inh MLPCN – ABCB6 transporter inhibitors, primary screen, K562-ABCB6 cells, flow cytometry, MLPCN library; ATP-binding cassette sub-family B member 6 (Homo sapiens), Q9NP58; K562-ABCB6 porphyrin accumulation, 1 h; hits give low values; 0.19% of 360,000 active; fluorescence ratio to DMSO, % at 10 µM; AID 602162, 2011;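 active = fluorescence ratio to DMSO below 75%, the collection mean minus 3 SD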;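 also: signal is porphyrin accumulated inside mitochondria; lower ratio means ABCB6 inhibition with less porphyrin fluorescence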
PKA-R2B activ – activators of PKA-R2B holoenzyme, primary screen, biochemical, fluorescence polarization, Cy5-IP20, human; cAMP-dependent protein kinase catalytic subunit beta (Homo sapiens) + cAMP-dependent …; PKA-R2B holoenzyme dissociation; R2B truncated from residue 108, S112A mutant; 0% DMSO only, 100% 113 µM cGMP; activation, % at 11.4 µM; 0.079% of 340,000 active; AID 504700, 2011;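 active = activation above a cutoff set at the mean over all compounds plus 3 SD, cut at about 18% in these data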;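 also: higher means more holoenzyme dissociation and a rise in polarization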
A number is an active result; – = inactive; · = no result given. Hits are enriched below; roughly 0.94% of the tested compounds scored in any of these assays.

SMILES	pCIP destab	PKA-R1A activ	Exocytosis inh	UUG fidelity	ABCB6 inh MLPCN	PKA-R2B activ
O=C(N/N=C/c1ccc(-c2cccc([N+](=O)[O-])c2)o1)[C@H]1C[C@@H]1c1ccccc1	–	–	–	·	–	–
O=C(N/N=C/c1ccc(-c2ccc([N+](=O)[O-])cc2)o1)[C@H]1C[C@@H]1c1ccccc1	–	–	62.5	·	–	–
CC(=O)N(C1=C(Cl)C(=O)c2ccccc2C1=O)C1CCCCC1	–	–	89.9	–	–	–
CC(=O)N(c1ccccc1C)C1CCCC1	–	–	–	–	–	–
C=CCn1c(Sc2nnc(C)s2)nc2c1c(=O)[nH]c(=O)n2C	–	–	–	–	68.0	–
CC(C)CC#Cc1cnc2c(c1)C(=O)N([C@@H](C)CO)C[C@@H](C)[C@H](CN(C)C(=O)Nc1ccccc1F)O2	·	·	·	–	·	·
c1cnc2c(SCc3ccc(-c4nnco4)cc3)cccc2c1	–	–	68.9	–	–	–
O=C(Nc1ccc(F)cc1)N[C@@H]1CC[C@@H](CC(=O)N2CCOCC2)O[C@@H]1CO	·	·	·	–	·	·
Cc1nn(C(=O)c2cccnc2)c(C)c1Sc1ccc(Br)cc1	–	–	58.7	–	–	–
COc1ccc(C)cc1NC(=O)c1c([N+](=O)[O-])cnn1C	–	–	–	–	–	–
COc1ccccc1NC(=O)c1c(N=Cc2cccc([N+](=O)[O-])c2)cnn1C	–	·	61.9	–	–	·
CCOc1cc(/C=N/NC(=O)c2ccc(O)cc2)ccc1Oc1nc(Cl)ncc1F	–	–	–	·	–	–
CCOc1cc(/C=N\Nc2ncc(F)c(N3CCOCC3)n2)ccc1Oc1nc(Cl)ncc1F	–	–	82.7	·	–	–
C[C@H]1CCCCO[C@@H](CN(C)Cc2ccncc2)[C@@H](C)CN([C@@H](C)CO)C(=O)c2cc(NC(=O)Nc3ccc(C(F)(F)F)cc3)ccc2O1	·	·	·	–	·	·
CCOc1cc(/C=C2\CCC/C(=C\c3cc(Cl)c(O)c(OCC)c3)C2=O)cc(Cl)c1O	–	–	81.8	–	–	–
CCCNC(=O)C[C@H]1CC[C@H]2[C@@H](COc3ccc(NC(=O)c4ccc(OC)cc4)cc3C(=O)N2C)O1	·	·	·	–	·	·
Cc1cc(NC(=O)CCS(=O)(=O)c2nc(-c3ccccc3)cc(C(F)(F)F)n2)no1	–	–	–	–	–	–
CS(=O)(=O)c1nc(-c2ccccc2)cc(C(F)(F)F)n1	–	–	74.4	–	–	–
CCC1(CC)Cc2ccccc2-c2nc(-c3ccccc3)oc(=O)c21	–	–	–	–	70.0	–
COC(=O)c1ccc(/C=C2\SC(=S)N(CCCC(=O)NCCCN3CCOCC3)C2=O)cc1	–	–	78.0	–	–	–
Cn1cccc1CC(=O)N/N=C/c1cccc2ccccc12	–	–	–	–	–	–
Cn1cccc1CC(=O)N/N=C\c1c2ccccc2cc2ccccc12	–	–	–	–	73.0	–
CNC(=S)N/N=C/c1c2ccccc2c(Cl)c2ccccc12	–	–	56.5	–	–	–
NC(=S)N/N=C\c1c2ccccc2cc2ccccc12	–	–	64.6	–	–	–
COCC#Cc1cnc2c(c1)C(=O)N([C@@H](C)CO)C[C@H](C)[C@H](CN(C)Cc1ccc3c(c1)OCO3)O2	·	·	·	–	·	·
SMILES	pCIP destab	PKA-R1A activ	Exocytosis inh	UUG fidelity	ABCB6 inh MLPCN	PKA-R2B activ
C[C@@H]1CN([C@H](C)CO)C(=O)c2cc(NC(=O)Nc3cccc4ccccc34)ccc2O[C@@H](C)CCCCO[C@@H]1CN(C)C(=O)NC1CCCCC1	·	·	·	–	·	·
CCCN1C[C@H](C)[C@H](OC)CN(C)C(=O)c2ccc(NC(=O)Nc3c(C)noc3C)cc2OC[C@@H]1C	·	·	·	–	·	·
O=C1c2ccccc2-c2onc3ccc(Oc4ccccc4)c1c23	–	–	85.3	–	–	–
COCCCNC(=O)c1ccc2c3c(onc13)-c1ccccc1C2=O	–	–	–	–	–	–
COc1ccc(S(=O)(=O)N(C)C[C@H]2Oc3c(NC(=O)c4ccc(-c5nccs5)cc4)cccc3C(=O)N([C@@H](C)CO)C[C@H]2C)cc1	·	·	·	–	·	·
CCS(=O)(=O)c1ncc(Cl)c(C(=O)Nc2ccc(S(=O)(=O)N3CCCC(C)C3)cc2)n1 (stereo not drawn)	–	–	–	–	29.0	–
CCC1CCCCN1S(=O)(=O)c1ccc(NC(=O)c2ccncc2)cc1 (stereo not drawn)	–	–	–	–	–	–
CCC1CCCCN1S(=O)(=O)c1ccc(NC(=O)c2nc(S(C)(=O)=O)ncc2Cl)cc1 (stereo not drawn)	–	–	–	–	62.0	–
CC1=NOC(=O)/C1=C\c1ccc(-c2ccc(Br)cc2)o1	–	–	–	·	–	–
CC1=NOC(=O)/C1=C\c1ccc(-c2cc(Cl)ccc2Cl)o1	–	–	73.6	–	–	–
O=C(/C=C/c1ccc([N+](=O)[O-])cc1)c1ccccc(=O)c1O	·	–	56.3	·	–	–
COc1ccc(S(=O)(=O)Nc2ccc3c(c2)C(=O)N([C@H](C)CO)C[C@@H](C)[C@H](CN(C)Cc2ccncc2)O3)cc1	·	·	·	–	·	·
O=C(O)CCC(=O)Nc1nnc(C(F)(F)F)s1	–	–	–	–	–	–
CCC(NC(=O)Nc1nnc(C(F)(F)F)s1)(C(F)(F)F)C(F)(F)F	30.3	–	–	·	–	–
OC[C@@H]1[C@H](c2ccc(Br)cc2)[C@@H]2CN(Cc3cncnc3)CCCCN12	·	·	·	–	·	·
O=C1C(=Cc2ccc(Cl)cc2)Cc2ccccc21	·	·	–	·	–	·
C=CC(=O)N1C/C(=C/c2ccc(Cl)cc2)C(=O)/C(=C\c2ccc(Cl)cc2)C1	·	–	86.5	·	–	–
C=CC(=O)N1C/C(=C/c2ccccc2)C(=O)/C(=C\c2ccccc2)C1	·	–	70.7	·	–	–
Fc1ccc(NC(=S)NCc2ccccc2Cl)cc1	–	–	–	·	62.0	–
Cc1c(Cl)cccc1NC(=S)NCCc1ccc(F)cc1	–	–	83.8	–	–	–
CCS(=O)(=O)NCC[C@H]1CC[C@H](NC(=O)Cc2ccccn2)[C@H](CO)O1	·	·	·	–	·	·
O=C(O)C1=C[C@H](c2coc3ccccc3c2=O)C[C@H](OCCCCO)O1	–	–	69.4	–	–	–
C#CCOCCOCCOCCNc1nc(N2CCN(C(=O)CCCCCCCCCCNC(=O)[C@H]([C@@H](C)CC)n3cc(CCCCCN)nn3)CC2)nc(N2CCN(C(=O)CCCCCCCCCCNC(=O)[C@H]([C@@H](C)CC)n3cc(CCCCN=C(N)N)nn3)CC2)n1	·	–	–	–	–	–
